## Antibody variant affinities, Ab-14 light chain, assay 1

Antigen: PDVDLGDISGINAS, a 14-residue peptide of the SARS-CoV-2 spike HR2 region.

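The starting antibody came from a phage panning campaign against this peptide. Variants in AAYL50 differ from the parent at up to three CDR positions; double and triple changes were sampled at random. The scFvs were displayed on barcoded MATa yeast, the peptide on MATalpha yeast. The frequency of each diploid, read from paired DNA barcodes, reflects how well the two displayed proteins bind. Each replicate has its own calibration line, from reference interactions of the BCL2 family. There are three technical replicates.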

Each scFv is VH, a (GGGGS)3 linker, VL, as in the parent Ab-14, and differs from it in the CDRs of the light chain only.
VH: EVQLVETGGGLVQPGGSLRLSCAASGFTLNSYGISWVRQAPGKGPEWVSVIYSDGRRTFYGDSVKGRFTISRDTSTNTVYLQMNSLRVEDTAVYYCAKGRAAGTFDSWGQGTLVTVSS
VL: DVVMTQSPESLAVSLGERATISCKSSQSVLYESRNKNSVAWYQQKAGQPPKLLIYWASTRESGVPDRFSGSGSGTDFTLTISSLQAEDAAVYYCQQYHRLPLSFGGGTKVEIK

Each variant is given by its three light chain CDRs, as the data file delimits them; those of the parent are KSSQSVLYESRNKNSVA, WASTRES, QQYHRLPLS. The read-out is the apparent dissociation constant on a log10 scale (nM): the lower, the stronger. The mean shown is taken over the replicates in which the pair was detected. An entry "nd" has no value in the source: the pair was not observed among the diploids in any replicate. This suggests poor binding but is not conclusive.

| mean, log10 nM | detected | CDR-L1 | CDR-L2 | CDR-L3 |
|---|---|---|---|---|
| nd | 0 of 3 | KSSQSVLHESRNKESVA | WASTTES | QQYHRLPLS |
| 3.90 | 1 of 3 | KSSQSVLCTSRNKNYVA | WASTRES | QQYHRLPLS |
| nd | 0 of 3 | KSSQSVLRESRNKNSVF | WESTRES | QQYHRLPLS |
| 2.39 | 1 of 3 | KSMQSVLYESRYKNDVA | WASTRES | QQYHRLPLS |
| 4.93 | 2 of 3 | KSSNSVLAESRNKNSVA | WASTRQS | QQYHRLPLS |
| 3.24 | 2 of 3 | KSSQSVLYNSRLKNSVA | WARTRES | QQYHRLPLS |
| 2.45 | 3 of 3 | KSASSVLYESRNKNSVA | WADTRES | QQYHRLPLS |
| 1.94 | 3 of 3 | KSSQSVLYESRNKNSVA | WASWRES | QQYHMLPLF |
| nd | 0 of 3 | KSSQSVLYESYNKNSYA | WTSTRES | QQYHRLPLS |
| 1.30 | 3 of 3 | KMSQSVLYESRNKNPVA | WASTRES | QAYHRLPLS |
| 2.25 | 3 of 3 | KSSQSVYYESRNKNSVA | WASTRES | QQDFRLPLS |
| 0.35 | 3 of 3 | KSSQSWYYESRNKNSVA | WASTRES | QQYHRLRLS |
| nd | 0 of 3 | KSSQSVLYESRNKNSVA | WASGRES | QQYHRLPHS |
| 1.14 | 3 of 3 | KFMQSVLYMSRNKNSVA | WASTRES | QQYHRLPLS |
| 0.37 | 3 of 3 | CMSQSVLYESRNNNSVA | WASTRES | QQYHRLPLS |
| nd | 0 of 3 | ASSQSVLYASRNKNSVA | WASTRES | QQYHALPLS |
| 1.82 | 3 of 3 | KSSQSVEYESRNPNSVA | WASTRES | QQYHILPLS |
| nd | 0 of 3 | KSFSSVLYESRKKNSVA | WASTRES | QQYHRLPLS |
| 4.32 | 3 of 3 | KSSQSVLYESRNKNSVA | WAAGRES | QQYHRFPLS |
| nd | 0 of 3 | KSSQSVLYESQNVNSVA | WASTYES | QQYHRLPLS |
| 2.58 | 2 of 3 | MSSQSVLYESRNKNSVA | WASTRTV | QQYHRLPLS |
| nd | 0 of 3 | KSSQSVLYESRNKNSMA | IASTRES | QQYHRLPFS |
| nd | 0 of 3 | KSSQSVLYESRNKNIVA | WASTREE | QQYHRPPLS |
| 2.29 | 3 of 3 | KSSQSVLYESRNKNSVA | WASTREF | QQYQRLPLS |
| 0.86 | 3 of 3 | KSSQSVRDESRNKNSVA | WASTRES | AQYHRLPLS |
| 1.43 | 3 of 3 | MSSQSVLYESRNINSVA | WASTRES | QQYHMLPLS |
| nd | 0 of 3 | KSSQSVLYESRNKNSVA | WAVTYES | QQYHRGPLS |
| 2.70 | 3 of 3 | ASSHSVCYESRNKNSVA | WASTRES | QQYHRLPLS |
| nd | 0 of 3 | KSAQSVLYESRNKNSVN | WWSTRES | QQYHRLPLS |
| nd | 0 of 3 | KSSQSSLYESRNKNSVA | WAATRES | QQYHRNPLS |
| 3.18 | 3 of 3 | SSSQSVLYESRNKNSVA | WASTRES | QEYHRHPLS |
| nd | 0 of 3 | KSSQSVLYFSRNKNSVA | WAKTRES | QQYHRLLLS |
| 2.42 | 3 of 3 | KSSQSVLYESRGKNSVA | WALTRES | QQYHRLRLS |
| nd | 0 of 3 | KMSQSVLYESRTKNSVA | WASTRES | QQYHRLPES |
| nd | 0 of 3 | KSSQSVLGESRNKVSVG | WASTRES | QQYHRLPLS |
| 0.80 | 3 of 3 | RSSQSVLQESRNKNSIA | WASTRES | QQYHRLPLS |
| nd | 0 of 3 | KSSQSVLYESRNKNYVA | WASTEES | QNYHRLPLS |
| 4.76 | 1 of 3 | KSSQSVLYFSRNKNSEA | WASTREC | QQYHRLPLS |
| nd | 0 of 3 | KSSQSVLYESRNKNSVA | WASTMES | QQYRRLPFS |
| 4.60 | 3 of 3 | KSSQSVYYESRNKNSSA | WASTRES | QQYHRLPLS |
| 1.24 | 3 of 3 | HHSQSVLYESRNKNSVA | WASTRES | QQYHRLPLS |
| 0.69 | 3 of 3 | KSSQDVLYESRNKWSVA | WASTRES | QQYHRLPNS |
| 2.52 | 2 of 3 | KSSQSVLYESRNKPSVA | WASTRGS | QQYHRLRLS |
| 4.46 | 1 of 3 | KSSQSVLYASRNKFSVA | WASTRES | QVYHRLPLS |
| 0.74 | 3 of 3 | KSSQSVSYESRNPNSVA | WASTRES | QQYHRLPLS |
| nd | 0 of 3 | KSSQSVLYESRNKNSVA | WDGTREF | QQYHRLPLS |
| 4.23 | 2 of 3 | KSSQSVLYESRRKNSVA | WASTRES | QQVHRLKLS |
| 2.12 | 3 of 3 | KSSQSVLYESRNKQSVA | WAYTREY | QQYHRLPLS |
| nd | 0 of 3 | ESSQSVLYESRNKNSVA | WASTRES | QQYHTLPAS |
| 3.60 | 2 of 3 | KSSQSFLYESRNKNSVI | WASTRES | QQYHRLSLS |
| 0.69 | 3 of 3 | KSSQSVLYESSNKNPVA | WASTRES | QQYHRLPLC |
| nd | 0 of 3 | KSSQSVLYESRNKNSVI | WACTRES | QQYKRLPLS |
| 0.44 | 3 of 3 | KSNQSVLYESRNKNSVA | KASTRES | QQYHRLPIS |
| 2.60 | 2 of 3 | KSSQSVLYESRNKNSVA | WTSSRES | QQAHRLPLS |
| 0.21 | 3 of 3 | KSMHSVWYESRNKNSVA | WASTRES | QQYHRLPLS |
| 2.28 | 3 of 3 | KSSQSVLYESCNKNSVA | WASTRES | QQYLRLPLS |
| 4.59 | 1 of 3 | KSSQSVLYESRRKNSQA | WASTRES | SQYHRLPLS |
| nd | 0 of 3 | KSSQSVLYEWRMKNSVA | WASTRES | QQYHTLPLS |
| 0.85 | 3 of 3 | KSSQSIGYESRNKNSVA | WASTRES | QQYHRLPLS |
| 4.31 | 1 of 3 | KSSQSVLYESRNKNSVA | WMSTRES | TQMHRLPLS |
| 4.98 | 2 of 3 | LSSQSVLYESRNKNSVA | WASNRES | QEYHRLPLS |
| 4.72 | 3 of 3 | KSSQSELYESRNKNLVA | WASTRES | QQYHRPPLS |
| nd | 0 of 3 | KSYQSVLYESGNKNSVY | WASTRES | QQYHRLPLS |
| 3.29 | 2 of 3 | KSSQSILYESRNKNSFA | WASTRSS | QQYHRLPLS |
| nd | 0 of 3 | KSSQSVLYESMNKNSVA | WASTIES | VQYHRLPLS |
| 4.90 | 1 of 3 | SSSQSVLYESRNKNSVV | WPSTRES | QQYHRLPLS |
| 3.66 | 1 of 3 | KSSQRVLYESRNKNSVA | WASTRES | QQPHRLPRS |
| 2.89 | 3 of 3 | KSSQSELYESRNKNSVA | WASSRES | QAYHRLPLS |
| nd | 0 of 3 | KSSKSVLYESRNKNSVA | WASTNES | QQEHRLPLS |
| 3.99 | 1 of 3 | KKSQSVLYESRNKNSVA | WKSTRES | QQYHRLPLS |
| 0.67 | 3 of 3 | KSSQSVLIESRNKNSVA | WASTRES | QQYHALDLS |

Background: pairings of library AAYL50 with three empty control strains gave a value in 18% of cases (median 4.19, 5th percentile 2.99). Values in that range, when seen in few replicates, are hard to tell from nonspecific mating.

Reference: Engelhart et al. 2022, doi:10.1038/s41597-022-01779-4. File: FLAb, binding data.